Data from US20250353842A1, “BICYCLIC AMINE CDK12 INHIBITORS” (Incyte Corporation, priority 2022, published 2025).

Protein sequences, listed by entry. Tags and fused reporters are not part of them.
UniProt Q9NYV4, whole entry: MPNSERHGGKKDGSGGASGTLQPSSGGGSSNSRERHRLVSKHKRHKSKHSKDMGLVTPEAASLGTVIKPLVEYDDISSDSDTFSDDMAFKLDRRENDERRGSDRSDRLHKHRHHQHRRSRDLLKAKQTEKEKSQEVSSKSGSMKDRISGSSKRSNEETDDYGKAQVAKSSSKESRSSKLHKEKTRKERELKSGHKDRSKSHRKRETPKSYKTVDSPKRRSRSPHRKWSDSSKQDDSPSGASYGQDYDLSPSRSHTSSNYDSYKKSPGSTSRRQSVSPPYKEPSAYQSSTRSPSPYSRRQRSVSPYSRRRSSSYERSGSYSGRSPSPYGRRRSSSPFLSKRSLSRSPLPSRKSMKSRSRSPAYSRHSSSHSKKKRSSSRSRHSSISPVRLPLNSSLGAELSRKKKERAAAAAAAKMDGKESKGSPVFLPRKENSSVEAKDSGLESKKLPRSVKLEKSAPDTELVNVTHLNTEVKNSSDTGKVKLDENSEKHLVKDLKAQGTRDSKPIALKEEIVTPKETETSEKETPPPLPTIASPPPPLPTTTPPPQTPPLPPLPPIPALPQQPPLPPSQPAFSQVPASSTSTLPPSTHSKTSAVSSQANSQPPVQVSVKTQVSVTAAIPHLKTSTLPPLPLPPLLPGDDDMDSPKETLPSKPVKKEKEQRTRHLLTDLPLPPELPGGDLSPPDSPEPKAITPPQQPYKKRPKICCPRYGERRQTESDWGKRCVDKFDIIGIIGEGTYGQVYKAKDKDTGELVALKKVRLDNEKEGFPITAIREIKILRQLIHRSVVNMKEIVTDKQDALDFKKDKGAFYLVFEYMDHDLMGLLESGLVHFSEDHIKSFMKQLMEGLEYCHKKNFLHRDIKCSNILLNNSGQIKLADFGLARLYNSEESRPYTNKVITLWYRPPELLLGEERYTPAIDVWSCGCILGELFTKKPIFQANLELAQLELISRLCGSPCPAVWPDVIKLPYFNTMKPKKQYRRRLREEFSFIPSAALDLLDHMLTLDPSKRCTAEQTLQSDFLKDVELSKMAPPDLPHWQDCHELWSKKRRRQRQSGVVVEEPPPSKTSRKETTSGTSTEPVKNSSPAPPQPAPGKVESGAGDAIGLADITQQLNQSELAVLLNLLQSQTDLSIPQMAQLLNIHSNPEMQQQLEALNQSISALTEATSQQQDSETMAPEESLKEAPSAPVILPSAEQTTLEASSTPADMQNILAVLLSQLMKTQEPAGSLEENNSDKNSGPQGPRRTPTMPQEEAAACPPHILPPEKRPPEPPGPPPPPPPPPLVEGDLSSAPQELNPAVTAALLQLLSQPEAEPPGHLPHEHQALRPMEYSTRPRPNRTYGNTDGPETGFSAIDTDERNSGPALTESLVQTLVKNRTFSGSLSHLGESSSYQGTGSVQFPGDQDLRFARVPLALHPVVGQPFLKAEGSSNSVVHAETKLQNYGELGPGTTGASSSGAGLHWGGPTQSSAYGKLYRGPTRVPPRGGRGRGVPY
UniProt O75909, whole entry partner: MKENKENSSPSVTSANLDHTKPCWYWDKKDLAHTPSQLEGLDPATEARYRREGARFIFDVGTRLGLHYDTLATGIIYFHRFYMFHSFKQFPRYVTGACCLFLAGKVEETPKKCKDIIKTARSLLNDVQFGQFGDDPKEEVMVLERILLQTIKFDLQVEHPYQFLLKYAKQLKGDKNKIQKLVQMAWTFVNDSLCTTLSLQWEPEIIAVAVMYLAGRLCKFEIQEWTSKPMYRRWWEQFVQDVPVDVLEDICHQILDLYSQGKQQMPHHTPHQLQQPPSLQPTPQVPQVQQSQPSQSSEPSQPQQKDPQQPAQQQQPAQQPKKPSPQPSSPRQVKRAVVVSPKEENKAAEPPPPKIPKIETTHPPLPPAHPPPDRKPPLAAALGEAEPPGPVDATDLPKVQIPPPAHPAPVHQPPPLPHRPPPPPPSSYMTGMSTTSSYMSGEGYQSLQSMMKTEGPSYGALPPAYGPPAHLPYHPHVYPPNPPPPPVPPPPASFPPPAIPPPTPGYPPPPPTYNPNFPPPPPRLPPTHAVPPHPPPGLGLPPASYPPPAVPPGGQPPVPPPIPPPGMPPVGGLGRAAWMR

Target: CDK12 complexed with Cyclin K (Homo sapiens (Human), UniProt Q9NYV4)
Assay: CDK enzymatic assay (HTRF, LANCE Ultra kinase assay)
Conditions: read-out: CDK12 IC50, 60 minutes pre-incubation, 1 mM ATP
Description: The following activity of the CDK enzymes in complex with their respective cyclins we assayed: CDK1 complexed with Cyclin B1; CDK2 complexed with Cyclin E1; CDK4 complexed with Cyclin D1; CDK6 complexed with Cyclin D1; CDK6 complexed with Cyclin D3; CDK9 complexed with Cyclin T1; CDK7 complexed with Cyclin H/MAT1; CDK2 complexed with Cyclin A2; CDK5 complexed with p35; CDK12 complexed with Cyclin K; CDK13 complexed with Cyclin K. These in vitro enzyme activity are assayed using homogeneous time-resolved energy transfer (HTRF), which measures phosphorylation of a peptide substrate. […] Each CDK enzyme activity assays utilized human CDK co-expressed as N-terminal GST-tagged protein with its full length cyclin partner using a baculovirus expression system. […]
The reaction was then incubated for 60-90 minutes at room temperature. […] HTRF signals were read after 15-120 minutes. A ratio of fluorescence transferred to the labeled substrate (665 nm) relative to fluorescence of the Europium donor (620 nm) represents the extent of phosphorylation. […] Normalized data was analyzed using a three or four parameter dose response curve to determine IC50 for each compound and are shown in Table A. Control reference inhibitors were included on each plate.

| SMILES | IC50 [µM] |
| --- | --- |
| FC(F)Cn1cc(-c2nc(N[C@@H]3CCC[C@H](n4cnc5ccncc54)C3)ncc2C(F)(F)F)cn1 | < 0.05 |
| CC(C)(CO)n1cc(-c2nc(N[C@@H]3CCC[C@H](n4cnc5cc(C#N)cnc54)C3)ncc2C#N)cn1 | < 0.05 |
